Source: patent publication US20250051332A1 (priority 2022, published 2025)

The chains behind the UniProt entries cited, without tags or fusion partners. Where a name states a change or a piece, a line headed by the entry shows the natural chain unless it says otherwise.
UniProt P41145: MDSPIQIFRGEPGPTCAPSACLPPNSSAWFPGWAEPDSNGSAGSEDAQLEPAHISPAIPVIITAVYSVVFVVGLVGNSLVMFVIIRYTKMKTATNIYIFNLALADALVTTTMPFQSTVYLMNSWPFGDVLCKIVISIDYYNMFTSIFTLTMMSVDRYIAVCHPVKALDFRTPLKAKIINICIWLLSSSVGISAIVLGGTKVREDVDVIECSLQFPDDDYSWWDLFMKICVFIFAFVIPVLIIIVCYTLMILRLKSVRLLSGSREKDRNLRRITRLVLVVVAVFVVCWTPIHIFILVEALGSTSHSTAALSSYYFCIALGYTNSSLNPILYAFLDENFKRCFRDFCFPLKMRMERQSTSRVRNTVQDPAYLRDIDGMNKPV

Target: T1, κOR (Homo sapiens, UniProt P41145)
T1 construct: host or cells: CHO-K1
Assay type: cell-based

Structure (SMILES)	Selectivity index = μOR EC50/κOR EC50
C/C=C1/CN2CC[C@]34C(=C(C(=O)OC)[C@H]1C[C@H]23)Nc1ccc(-c2ccsc2)cc14 [Compound 6, 10-(3-Thienyl)akuammicine]	110
C/C=C1/CN2CC[C@]34C(=C(C(=O)OC)[C@H]1C[C@H]23)Nc1ccc(-c2ccoc2)cc14 [Compound 5, 10-(3-Furanyl)akuammicine]	820
C/C=C1/CN2CC[C@]34C(=C(C(=O)OC)[C@H]1C[C@H]23)Nc1ccc(-c2ccccc2)cc14 [Compound 4, 10-Phenylakuammicine]	52
